scFv variants of Ab-14 (heavy chain) against a SARS-CoV-2 spike peptide

The target is the same throughout: PDVDLGDISGINAS, from the HR2 region of SARS-CoV-2 spike.

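The library (AAYL49) carries one to three amino acid substitutions per variant, with no insertions or deletions. AlphaSeq pools MATa yeast showing the antibodies with MATalpha yeast showing the peptide. Binding brings cells together so that they mate, and sequencing counts the barcode pairs among the diploids. Each replicate has its own calibration line, from reference interactions of the BCL2 family. There are three technical replicates.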

Ab-14 is the parent antibody, in scFv form: VH, then three GGGGS repeats, then VL. The light chain is unchanged in all variants.
VH: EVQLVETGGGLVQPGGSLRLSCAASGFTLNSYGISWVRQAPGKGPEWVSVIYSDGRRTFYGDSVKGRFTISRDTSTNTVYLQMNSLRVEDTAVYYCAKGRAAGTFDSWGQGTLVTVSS
VL: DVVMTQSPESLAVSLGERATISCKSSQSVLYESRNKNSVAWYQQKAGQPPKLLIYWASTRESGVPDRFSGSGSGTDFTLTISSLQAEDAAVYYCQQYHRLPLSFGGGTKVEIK

Variants are written as CDR1, CDR2 and CDR3 of the heavy chain (limits as in the source). Parent: GFTLNSYGIS, VIYSDGRRTFYGDSVK, GRAAGTFDS.
Numbers give log10(Kd / nM), so 0 is 1 nM and 3 is 1 µM. Smaller is tighter.
"nd" means that the variant was in the library but no mating with the target was seen in that replicate; the authors take this as a sign of poor binding, and no number exists.
As a blank, each scFv also met three strains without target: over library AAYL49, 15% of these pairings were detected, typically at 4.06 and seldom below 2.83. For each scFv, signals with the empty controls are counted beside the result, with their mean in brackets.

CDR-H1,CDR-H2,CDR-H3,"log10 Kd, replicates",signal with controls
GMTLHSYGIS,QIYSDGRRTFYGDSVK,GRAAGTFDS,4.11 nd nd,3 of 9 (3.51)
GFTLNNYGIS,VIFSDGRRTFYGDSVK,GRAAGTEDS,0.83 1.17 1.18,0 of 9
GVTLNSYGES,VIYSDGRRTFYGDSVK,GRMAGTFDS,nd 3.77 nd,3 of 9 (4.03)
GLTLNSYGIS,VIYSDGRRTFYGDSVR,GEAAGTFDS,0.47 0.77 0.45,3 of 9 (3.64)
GFTLNSYGIS,VIYSDIRRTRYIDSVK,GRAAGTFDS,nd nd nd,1 of 9 (3.65)
GFTLNSYGIL,VQMSDGRRTFYGDSVK,GRAAGTFDS,nd nd nd,0 of 9
GFTLNSYGIS,NIYSDGSRTFYGDSVK,GSAAGTFDS,3.70 3.98 nd,4 of 9 (3.69)
GFTLNSYGIS,DIYSYGDRTFYGDSVK,GRAAGTFDS,nd nd nd,1 of 9 (2.77)
GFTRNSYGIS,VIYSDGRRTFYGDSYK,GRAACTFDS,nd nd nd,0 of 9
GWTLNSYEIS,VIYSDGRRTFCGDSVK,GRAAGTFDS,nd nd nd,4 of 9 (3.90)
PFTLNSYPIS,VIYSDGRRAFYGDSVK,GRAAGTFDS,nd nd nd,0 of 9
GFDLNSYLIS,VIYSDGRRTFYGDSVK,YRAAGTFDS,nd nd nd,0 of 9
GFTLNSYGIS,VIYWDGRRTFYGDSVK,GRAAGMFDS,nd nd nd,1 of 9 (3.80)
CFTLNSYGIS,VIYSDGRRTFLGDSVK,GRAAGTFDS,nd nd nd,1 of 9 (3.66)
GFTLNSYGIS,WIYSDGRRTHLGDSVK,GRAAGTFDS,6.02 nd nd,1 of 9 (4.52)
GFTLNSYGIT,VIYSDGRRTFYGDSVK,GRVAGQFDS,nd nd nd,0 of 9
GFTLNSYGIS,VIYSDCRRTFNGDSVK,GRAAGTFDS,nd nd nd,1 of 9 (3.42)
GFTLNSYQIS,VIYSDGVRTFYGDSVK,GRCAGTFDS,nd 3.66 nd,1 of 9 (3.31)
CFTLNSYGIS,VIYSDGRRTFRGDSVK,GRAAGTFTS,nd nd nd,0 of 9
GFTLNSYGIS,VIGSNGRRTFYGDSVK,GRAAGTFDS,nd nd nd,0 of 9
GFTLNSVGIS,VIYSDGRRTFYGSSNK,GRAAGTFDS,nd nd nd,0 of 9
GTTLNSYGIS,VIYSDGRRTFYGDSVK,GRAMGTFDC,1.31 1.29 1.26,0 of 9
GFTLNSYGIS,FIPRDGRRTFYGDSVK,GRAAGTFDS,4.48 nd nd,5 of 9 (4.07)
GFTLNSYGIS,VIYSDPRNTFYGDSVK,GRAAGTFSS,nd nd nd,0 of 9
GFTLNSYGIS,VIYSDGRRTAYGDSVV,GRAAITFDS,nd nd nd,0 of 9
GFTLNSYGIS,VIYSDGRRTFYMDSVK,RRAMGTFDS,nd nd nd,0 of 9
GFTLNSYGIS,VIYSDGRRTFYGDSVK,MRAFGTFDS,nd 5.17 nd,3 of 9 (3.69)
GFTLNTYGIS,VIYSDGRRTFYGDQVK,GEAAGTFDS,0.67 0.87 0.78,1 of 9 (3.50)
VFTLNFYGIS,VQYSDGRRTFYGDSVK,GRAAGTFDS,nd nd nd,1 of 9 (3.55)
GFTLNSYGIS,VPNSDGRRTFYGDSVK,GRAAGGFDS,nd 4.31 5.86,2 of 9 (3.81)
GFTLNDYHIS,VIYYDGRRTFYGDSVK,GRAAGTFDS,nd nd nd,0 of 9
GFTLNGNGIS,VIYSDGRRTFYGDSVK,GRAAGTFDK,3.41 4.68 nd,1 of 9 (3.95)
GFTLNSYGIS,VILSDGRRTFYGDSWK,GRAAGTFDS,nd 2.93 nd,2 of 9 (3.79)
GFTLNSYGNS,VIYSDGRRTFYGDSVK,GRAWHTFDS,nd nd nd,0 of 9
GFTLNAYGIS,VHYSDGRRTFYRDSVK,GRAAGTFDS,nd nd nd,2 of 9 (4.47)
GFTLNSYGIS,VIYSIGRYTFYGDSVK,GRAAVTFDS,nd nd nd,0 of 9
GFTLNSYGNS,VIYSDGRRTFYGDVVQ,GRAAGTFDS,nd nd 3.37,0 of 9
GFTLNSYGIS,VIYSDGQRTFSGDSVG,GRAAGTFDS,nd nd nd,0 of 9
GFTLNYYGIS,VIYSDGRRTFYGDCVK,GRAAKTFDS,2.46 2.31 2.92,2 of 9 (3.00)

The first 5 entries again:

CDR-H1,CDR-H2,CDR-H3,"log10 Kd, replicates",signal with controls
GMTLHSYGIS,QIYSDGRRTFYGDSVK,GRAAGTFDS,4.11 nd nd,3 of 9 (3.51)
GFTLNNYGIS,VIFSDGRRTFYGDSVK,GRAAGTEDS,0.83 1.17 1.18,0 of 9
GVTLNSYGES,VIYSDGRRTFYGDSVK,GRMAGTFDS,nd 3.77 nd,3 of 9 (4.03)
GLTLNSYGIS,VIYSDGRRTFYGDSVR,GEAAGTFDS,0.47 0.77 0.45,3 of 9 (3.64)
GFTLNSYGIS,VIYSDIRRTRYIDSVK,GRAAGTFDS,nd nd nd,1 of 9 (3.65)

Source: Engelhart et al. 2022 (doi:10.1038/s41597-022-01779-4), MIT Lincoln Laboratory and A-Alpha Bio; data file from the FLAb repository.